Structures are written as SMILES.

Sequences of proteins named here, by UniProt entry; tags and fusion partners are left off.
UniProt P41143, whole entry, looked up: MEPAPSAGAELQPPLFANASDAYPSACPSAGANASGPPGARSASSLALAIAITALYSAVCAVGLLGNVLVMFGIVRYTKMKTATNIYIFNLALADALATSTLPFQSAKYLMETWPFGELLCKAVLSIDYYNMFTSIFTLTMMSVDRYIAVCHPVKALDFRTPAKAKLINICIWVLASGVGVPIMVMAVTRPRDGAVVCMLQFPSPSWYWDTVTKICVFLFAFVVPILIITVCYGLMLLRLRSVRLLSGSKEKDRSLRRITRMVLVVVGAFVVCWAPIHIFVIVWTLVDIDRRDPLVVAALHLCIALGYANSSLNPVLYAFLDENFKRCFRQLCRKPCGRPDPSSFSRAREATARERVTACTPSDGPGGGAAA
UniProt P35372, whole entry, looked up: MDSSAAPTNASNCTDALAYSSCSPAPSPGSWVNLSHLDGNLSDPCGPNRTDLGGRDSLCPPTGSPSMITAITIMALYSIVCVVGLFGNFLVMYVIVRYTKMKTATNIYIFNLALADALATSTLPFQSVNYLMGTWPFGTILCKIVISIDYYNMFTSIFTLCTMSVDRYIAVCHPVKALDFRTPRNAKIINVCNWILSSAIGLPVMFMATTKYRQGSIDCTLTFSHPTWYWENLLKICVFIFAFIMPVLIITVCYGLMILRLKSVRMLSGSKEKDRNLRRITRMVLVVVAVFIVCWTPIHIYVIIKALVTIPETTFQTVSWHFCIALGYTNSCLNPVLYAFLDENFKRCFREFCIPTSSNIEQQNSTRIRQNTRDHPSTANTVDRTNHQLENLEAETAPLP

The target of test [1] is Delta-type opioid receptor (Homo sapiens, UniProt P41143). Description: Binding affinity to delta-opioid receptor (unknown origin).
In a further test the target is Mu-type opioid receptor (Homo sapiens, UniProt P35372). Put plainly: Binding affinity to mu-opioid receptor (unknown origin).

For the molecule `CN(C(=O)Cc1ccc(Cl)c(Cl)c1)[C@@H]1CCCC[C@H]1N1CCCC1`, the Ki (commonly the equilibrium dissociation constant of an inhibitor or competing ligand from its target) was above 5000 nM in test [1] and 1400 nM on Mu-type opioid receptor.

The record behind these values is ChEMBL document CHEMBL5620418.
